Assay [1] deals with H3122 cells. To be noted: crizotinib 1 μM, marimastat 10 μM.
The subject of assay [2] is Erk activity, STE-1 cells. The experiment in a line: live cell imaging of Erk kinase translocation reporter (ErkKTR). The format is cell-based. As to the method:
Error bars represent 95% confidence intervals. […] FIG. 4I depicts the comparison of EGR1 expression after 6 hr of inhibitor treatment. […] FIG. 5B is the schematic of spatial analysis of Erk signaling in relation to dying cells. Cells within a 32 μm radius of a dying cell were considered neighbors of the dying cell, whereas all other cells were non-neighbors. Neighbors/non-neighbors were identified and tracked for 50 min before the death event, and Erk actvity in these cells was quantified. FIG. 5C depicts the quantification of Erk activity pulses in neighbors (“N”) or non-neighbors (“R”) of each cell-death event in the indicated conditions.
To further understand Erk reactivation, the present study observed Erk activity using live cell imaging of the Erk kinase translocation reporter (ErkKTR) in STE-1 cells (FIG. 4A). ErkKTR is a fluorescence reporter whose localization corresponds with Erk activity: the nuclear localization of ErkKTR indicates low activity of Erk while the cytoplasmic localization indicates high activity of Erk.

Take `C[C@@H](Oc1cc(-c2cnn(C3CCNCC3)c2)cnc1N)c1c(Cl)ccc(F)c1Cl` [crizotinib]: the “cell outgrowth at 17 days of treatment” value in assay [1] is listed as “started to grow out again”. Moreover, the “time to onset of Erk activity pulsing” value in assay [2] (1 μM) was at most 1 h. In addition, in assay [2] (individual cells), the “duration of Erk activity pulses” value is given as about 15 min.

The values above are taken from patent publication US20230101403A1, “METHOD OF TREATING OR AMELIORATING CANCERS DRIVEN BY RECEPTOR TYROSINE KINASE FUSION ONCOGENES, AND COMPOSITIONS FOR THE SAME” (THE TRUSTEES OF THE UNIVERSITY OF PENNSYLVANIA, priority 2021, published 2023).
